## CycPeptMPDB entries from one study

Collected by the curators of CycPeptMPDB (Li et al. 2023) from Kelly et al. 2021, doi:10.1021/jacs.0c06115.

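Conditions beyond the assay type are not listed; see the original paper. Other peptides of the study may be missing here. Entries at the database's floor value (log10 P of -10) are not listed.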

PAMPA measures passive passage through an artificial lipid membrane. Permeability is in 10^-6 cm/s, converted from the database's log10 values; higher is more permeable.

structure (SMILES) | PAMPA (10^-6 cm/s)
CC(=O)N1CCC[C@H]1C(=O)N(C)[C@H](CC(C)C)C(=O)N[C@@H]1C(=O)N(C)[C@H](CC(C)C)C(=O)N(C)[C@H](CC(C)C)C(=O)N(C)[C@@H](CC(C)C)C(=O)N(C)[C@H](C)C(=O)N[C@H](CC(C)C)C(=O)N2CCC[C@H]2C(=O)O[C@@H]1C | 9.1
CC(=O)N1CCC[C@H]1C(=O)N(C)[C@@H](CC(C)C)C(=O)N[C@@H]1C(=O)N(C)[C@@H](CC(C)C)C(=O)N[C@@H](CC(C)C)C(=O)N[C@H](CC(C)C)C(=O)N(C)[C@H](C)C(=O)N[C@H](CC(C)C)C(=O)N2CCC[C@H]2C(=O)O[C@@H]1C | 0.095
CC(=O)N1CCC[C@H]1C(=O)N(C)[C@H](CC(C)C)C(=O)N[C@@H]1C(=O)N(C)[C@@H](CC(C)C)C(=O)N(C)[C@H](CC(C)C)C(=O)N(C)[C@@H](CC(C)C)C(=O)N(C)[C@@H](C)C(=O)N[C@H](CC(C)C)C(=O)N2CCC[C@H]2C(=O)O[C@@H]1C | 6.6
CC(=O)N1CCC[C@@H]1C(=O)N(C)[C@H](CC(C)C)C(=O)N[C@@H]1C(=O)N(C)[C@H](CC(C)C)C(=O)N(C)[C@@H](CC(C)C)C(=O)N[C@@H](CC(C)C)C(=O)N(C)[C@H](C)C(=O)N[C@H](CC(C)C)C(=O)N2CCC[C@@H]2C(=O)O[C@@H]1C | 1.2
CC(=O)N1CCC[C@@H]1C(=O)N(C)[C@H](CC(C)C)C(=O)N[C@@H]1C(=O)N[C@H](CC(C)C)C(=O)N(C)[C@H](CC(C)C)C(=O)N[C@H](CC(C)C)C(=O)N[C@@H](C)C(=O)N[C@H](CC(C)C)C(=O)N2CCC[C@H]2C(=O)O[C@@H]1C | 4.7
CC(=O)N1CCC[C@H]1C(=O)N(C)[C@@H](CC(C)C)C(=O)N[C@@H]1C(=O)N[C@H](CC(C)C)C(=O)N(C)[C@@H](CC(C)C)C(=O)N[C@@H](CC(C)C)C(=O)N(C)[C@H](C)C(=O)N[C@@H](CC(C)C)C(=O)N2CCC[C@H]2C(=O)O[C@@H]1C | 1.7
CC(=O)N1CCC[C@H]1C(=O)N[C@@H]1C(=O)N(C)[C@H](CC(C)C)C(=O)N(C)[C@H](CC(C)C)C(=O)N(C)[C@H](CC(C)C)C(=O)N[C@@H](CC(C)C)C(=O)N(C)[C@@H](C)C(=O)N[C@@H](CC(C)C)C(=O)N2CCC[C@@H]2C(=O)O[C@@H]1C | 7.2
CC(=O)N1CCC[C@@H]1C(=O)N(C)[C@@H](CC(C)C)C(=O)N[C@@H]1C(=O)N(C)[C@@H](CC(C)C)C(=O)N[C@@H](CC(C)C)C(=O)N(C)[C@@H](CC(C)C)C(=O)N(C)[C@@H](C)C(=O)N[C@@H](CC(C)C)C(=O)N2CCC[C@@H]2C(=O)O[C@@H]1C | 2.4
CC(=O)N1CCC[C@H]1C(=O)N(C)[C@H](CC(C)C)C(=O)N[C@@H]1C(=O)N(C)[C@@H](CC(C)C)C(=O)N(C)[C@@H](CC(C)C)C(=O)N[C@@H](CC(C)C)C(=O)N(C)[C@@H](C)C(=O)N[C@@H](CC(C)C)C(=O)N2CCC[C@@H]2C(=O)O[C@@H]1C | 6.5
CC(=O)N1CCC[C@H]1C(=O)N[C@@H]1C(=O)N(C)[C@H](CC(C)C)C(=O)N[C@@H](CC(C)C)C(=O)N[C@@H](CC(C)C)C(=O)N[C@@H](CC(C)C)C(=O)N[C@@H](C)C(=O)N[C@@H](CC(C)C)C(=O)N2CCC[C@@H]2C(=O)O[C@@H]1C | 0.15
CC(=O)N1CCC[C@H]1C(=O)N(C)[C@@H](CC(C)C)C(=O)N[C@@H]1C(=O)N[C@@H](CC(C)C)C(=O)N[C@@H](CC(C)C)C(=O)N(C)[C@H](CC(C)C)C(=O)N[C@@H](C)C(=O)N[C@@H](CC(C)C)C(=O)N2CCC[C@H]2C(=O)O[C@@H]1C | 0.71
CC(=O)N1CCC[C@@H]1C(=O)N(C)[C@H](CC(C)C)C(=O)N[C@@H]1C(=O)N(C)[C@H](CC(C)C)C(=O)N(C)[C@@H](CC(C)C)C(=O)N[C@@H](CC(C)C)C(=O)N[C@@H](C)C(=O)N[C@H](CC(C)C)C(=O)N2CCC[C@@H]2C(=O)O[C@@H]1C | 1.2
CC(=O)N1CCC[C@@H]1C(=O)N(C)[C@H](CC(C)C)C(=O)N[C@@H]1C(=O)N[C@H](CC(C)C)C(=O)N[C@@H](CC(C)C)C(=O)N[C@@H](CC(C)C)C(=O)N(C)[C@@H](C)C(=O)N[C@H](CC(C)C)C(=O)N2CCC[C@@H]2C(=O)O[C@@H]1C | 0.45

The 2 highest values of PAMPA among the entries above:

structure (SMILES)	PAMPA (10^-6 cm/s)
CC(=O)N1CCC[C@H]1C(=O)N(C)[C@H](CC(C)C)C(=O)N[C@@H]1C(=O)N(C)[C@H](CC(C)C)C(=O)N(C)[C@H](CC(C)C)C(=O)N(C)[C@@H](CC(C)C)C(=O)N(C)[C@H](C)C(=O)N[C@H](CC(C)C)C(=O)N2CCC[C@H]2C(=O)O[C@@H]1C	9.1
CC(=O)N1CCC[C@H]1C(=O)N[C@@H]1C(=O)N(C)[C@H](CC(C)C)C(=O)N(C)[C@H](CC(C)C)C(=O)N(C)[C@H](CC(C)C)C(=O)N[C@@H](CC(C)C)C(=O)N(C)[C@@H](C)C(=O)N[C@@H](CC(C)C)C(=O)N2CCC[C@@H]2C(=O)O[C@@H]1C	7.2